SMILES strings stand for the structures.

The chains behind the UniProt entries cited, without tags or fusion partners. Residues count along the entry.
UniProt P17597, 56-670 E575Q/S653N: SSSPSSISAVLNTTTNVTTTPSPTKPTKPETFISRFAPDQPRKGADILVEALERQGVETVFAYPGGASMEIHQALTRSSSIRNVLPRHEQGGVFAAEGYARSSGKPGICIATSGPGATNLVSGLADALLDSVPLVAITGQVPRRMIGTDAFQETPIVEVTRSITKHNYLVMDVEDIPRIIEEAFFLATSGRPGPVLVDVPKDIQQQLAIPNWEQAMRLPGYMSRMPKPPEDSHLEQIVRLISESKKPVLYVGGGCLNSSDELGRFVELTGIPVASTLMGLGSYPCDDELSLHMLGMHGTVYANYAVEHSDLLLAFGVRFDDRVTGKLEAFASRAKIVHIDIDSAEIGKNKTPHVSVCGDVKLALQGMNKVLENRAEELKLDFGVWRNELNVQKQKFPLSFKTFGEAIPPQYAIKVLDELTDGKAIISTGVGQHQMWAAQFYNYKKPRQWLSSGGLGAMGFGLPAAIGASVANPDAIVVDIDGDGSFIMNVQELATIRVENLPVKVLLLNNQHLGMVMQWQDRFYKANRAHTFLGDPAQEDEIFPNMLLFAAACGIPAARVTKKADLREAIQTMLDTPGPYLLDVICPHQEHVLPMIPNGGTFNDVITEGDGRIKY

In this test the target is Arabidopsis thaliana S653N-mutant ALS (Arabidopsis thaliana, UniProt P17597, E575Q/S653N). Particulars: relative to WT; from measured pI50.

As to `COC(=O)c1ccc(C(F)(F)F)nc1S(=O)(=O)NC(=O)Nc1nc(OC)cc(OC)n1` [Flupyrsulfuron-methyl, flupyrsulfuron-methyl-sodium], the “Resistance Factor S653N” value amounted to 3.
